Measurements as given in patent US9796676B2, “Honeybee repellents and uses thereof” (Inscent, Inc., priority 2013, dated 2017).

Test system: Apis mellifera Carniolan foraging worker honeybees
Experiment: Proboscis extension response (PER) assay with bees conditioned to 2-heptanone
Assay type: in vivo
Settings: 0.5% compound in Triton X-100/water on filter paper, 4 s exposure; only bees giving PER with 2-heptanone and not with water or 15% Triton X-100 controls counted
Procedure: To determine whether a living honeybee can recognize a candidate compound, these compounds were tested using a proboscis extension response (PER) assay using classical conditioning approaches. Proboscis extension response conditioning is a case of appetitive learning, in which bees learn to associate odor stimuli with sucrose reward in the laboratory. In this case, bees were conditioned to produce a PER to 2-heptanone as the conditioned stimulus and a sugar reward as the unconditioned stimulus. These trained bees were then exposed to an odor pulse of a candidate compound to test whether a candidate compound would also produce a PER. If the candidate compound “mimics” 2-heptanone then the honeybee will extend its proboscis.
For conditioning procedures, Apis mellifera Carniolan foraging worker honeybees were obtained from a local apiary (typically 60 bees per shipment). […]
To train a honeybee to respond to a conditioned and unconditioned stimuli, bees were placed, without anesthesia, in individual 1.5 mL micro-centrifuge holding tubes and held overnight without access to food or water. […] Positive and negative responses were recorded. A positive PER was scored when a bee extended its proboscis before the sucrose appeared. […]

Structure (SMILES) | 2-heptanone positive bees testing positive to compound
O=C(CCN1C(=O)c2ccccc2C1=O)N1CCN(C2c3ccccc3-c3ccccc32)CC1 [compound 100] | 10.4%
O=C(CCN1C(=O)c2ccccc2C1=O)N1CCN(C2c3ccccc3-c3ccccc32)CC1 [compound 102] | 10.5%
